Values of other authors as cited in patent US12600787B2, “Methods for the treatment of thyroid eye disease” (Horizon Therapeutics Ireland DAC, priority 2019, dated 2026).

Settings: in vivo; cited from earlier work

**Q.** Which T1/2 does the source give for Ganitumab here?
**A.** IV; 6-9 days
